# Measured affinities in a library of Ab-14 light chain variants

From the AlphaSeq antibody data of Engelhart et al. 2022 (doi:10.1038/s41597-022-01779-4), copy in the FLAb collection.

The target is the same throughout: PDVDLGDISGINAS, from the HR2 region of SARS-CoV-2 spike.

Parent: Ab-14, a human scFv built as VH, three GGGGS repeats, VL. Only the CDRs of the light chain vary.
VH: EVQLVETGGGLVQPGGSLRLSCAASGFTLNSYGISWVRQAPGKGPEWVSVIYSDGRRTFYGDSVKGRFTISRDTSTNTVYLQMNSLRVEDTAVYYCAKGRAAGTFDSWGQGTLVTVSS
VL: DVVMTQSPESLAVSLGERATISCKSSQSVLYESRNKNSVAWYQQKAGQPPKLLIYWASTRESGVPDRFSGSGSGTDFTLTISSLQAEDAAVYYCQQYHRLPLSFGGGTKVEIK

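Variants in AAYL50 differ from the parent at up to three CDR positions; double and triple changes were sampled at random. The scFvs were displayed on barcoded MATa yeast, the peptide on MATalpha yeast. The frequency of each diploid, read from paired DNA barcodes, reflects how well the two displayed proteins bind. Scores were corrected for input abundance and mapped to Kd with protein pairs of known affinity run in the same pool. The assay was run in three technical replicates.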

Substitutions are numbered in sequence along the VL above, starting at 1 (not Kabat).
Numbers give log10(Kd / nM), so 0 is 1 nM and 3 is 1 µM. Smaller is tighter.
"nd" means that the variant was in the library but no mating with the target was seen in that replicate; the authors take this as a sign of poor binding, and no number exists.
Background: pairings of library AAYL50 with three empty control strains gave a value in 18% of cases (median 4.19, 5th percentile 2.99). Values in that range, when seen in few replicates, are hard to tell from nonspecific mating. Also given: how often the same scFv was detected with the empty control strains, with their mean in brackets.
For reference, the parent read 0.65 as the reference entry and 1.68 as a member of this library.

{"changes": "S25I/S38A", "log10 Kd (nM) by replicate": "-0.35 0.06 -0.16", "signal with controls": "3 of 9 (5.74)"}
{"changes": "R60N/S103E", "log10 Kd (nM) by replicate": "nd nd nd", "signal with controls": "0 of 9"}
{"changes": "S38F/W56M/E61N", "log10 Kd (nM) by replicate": "2.05 1.87 2.14", "signal with controls": "0 of 9"}
{"changes": "A40S/L100Q/P101V", "log10 Kd (nM) by replicate": "nd nd nd", "signal with controls": "1 of 9 (3.18)"}
{"changes": "Q27I/R34W/N37M", "log10 Kd (nM) by replicate": "1.98 1.64 2.51", "signal with controls": "2 of 9 (3.74)"}
{"changes": "A40S/S62Y", "log10 Kd (nM) by replicate": "nd nd nd", "signal with controls": "1 of 9 (4.07)"}
{"changes": "R34I/N37K/R60T", "log10 Kd (nM) by replicate": "nd nd nd", "signal with controls": "0 of 9"}
{"changes": "V29S/N35F/P101G", "log10 Kd (nM) by replicate": "nd nd nd", "signal with controls": "0 of 9"}
{"changes": "S26L/Y97G/L100R", "log10 Kd (nM) by replicate": "nd 3.71 nd", "signal with controls": "1 of 9 (4.62)"}
{"changes": "S62R/Q96F/L102H", "log10 Kd (nM) by replicate": "nd nd nd", "signal with controls": "0 of 9"}
{"changes": "Q27C/L30F/P101N", "log10 Kd (nM) by replicate": "6.36 3.40 nd", "signal with controls": "2 of 9 (3.95)"}
{"changes": "S28K/K36Y/R60T", "log10 Kd (nM) by replicate": "nd nd nd", "signal with controls": "2 of 9 (3.96)"}
{"changes": "S28G/E32H/R99C", "log10 Kd (nM) by replicate": "nd 3.20 nd", "signal with controls": "2 of 9 (4.59)"}
{"changes": "N37Q/L100Q/P101Q", "log10 Kd (nM) by replicate": "4.58 4.04 nd", "signal with controls": "1 of 9 (2.57)"}
{"changes": "L30M/N37R/S58D", "log10 Kd (nM) by replicate": "0.92 0.97 0.92", "signal with controls": "2 of 9 (3.84)"}
{"changes": "K24V/S38A/L100Y", "log10 Kd (nM) by replicate": "3.77 nd nd", "signal with controls": "0 of 9"}
{"changes": "S28L/L30D/Q96I", "log10 Kd (nM) by replicate": "2.84 nd 2.52", "signal with controls": "0 of 9"}
{"changes": "Q27N/A57T/Q96H", "log10 Kd (nM) by replicate": "1.50 1.63 1.65", "signal with controls": "2 of 9 (4.51)"}
{"changes": "S33Q/V39G", "log10 Kd (nM) by replicate": "0.12 0.37 0.09", "signal with controls": "0 of 9"}
{"changes": "Q27F/N35T/S38V", "log10 Kd (nM) by replicate": "nd nd nd", "signal with controls": "0 of 9"}
{"changes": "K24L/L30S/R99P", "log10 Kd (nM) by replicate": "nd nd nd", "signal with controls": "0 of 9"}
{"changes": "L30I/Y31S/N37T", "log10 Kd (nM) by replicate": "2.89 2.93 2.80", "signal with controls": "2 of 9 (3.71)"}
{"changes": "Q27N/E32L/R99Y", "log10 Kd (nM) by replicate": "2.34 2.07 2.35", "signal with controls": "2 of 9 (4.90)"}
{"changes": "K24I/E32F/W56N", "log10 Kd (nM) by replicate": "-0.04 0.37 0.10", "signal with controls": "1 of 9 (4.41)"}
{"changes": "S26H/N35V/S58N", "log10 Kd (nM) by replicate": "1.43 nd 1.88", "signal with controls": "0 of 9"}
{"changes": "K24E/S26P/Q95S", "log10 Kd (nM) by replicate": "2.58 2.37 2.78", "signal with controls": "2 of 9 (4.07)"}
{"changes": "A40Y/S58L/R60T", "log10 Kd (nM) by replicate": "nd nd nd", "signal with controls": "0 of 9"}

Top 2 of the variants detected in all replicates, tightest first:

{"changes": "S25I/S38A", "log10 Kd (nM) by replicate": "-0.35 0.06 -0.16", "signal with controls": "3 of 9 (5.74)"}
{"changes": "K24I/E32F/W56N", "log10 Kd (nM) by replicate": "-0.04 0.37 0.10", "signal with controls": "1 of 9 (4.41)"}